From patent US11046699B2, “Pyrazolo-pyrimidin-amino-cycloalkyl compounds and their therapeutic uses” (RAPT THERAPEUTICS, INC., priority 2018, dated 2021)

The chains behind the UniProt entries cited, without tags or fusion partners.
UniProt Q9P2K8, whole entry: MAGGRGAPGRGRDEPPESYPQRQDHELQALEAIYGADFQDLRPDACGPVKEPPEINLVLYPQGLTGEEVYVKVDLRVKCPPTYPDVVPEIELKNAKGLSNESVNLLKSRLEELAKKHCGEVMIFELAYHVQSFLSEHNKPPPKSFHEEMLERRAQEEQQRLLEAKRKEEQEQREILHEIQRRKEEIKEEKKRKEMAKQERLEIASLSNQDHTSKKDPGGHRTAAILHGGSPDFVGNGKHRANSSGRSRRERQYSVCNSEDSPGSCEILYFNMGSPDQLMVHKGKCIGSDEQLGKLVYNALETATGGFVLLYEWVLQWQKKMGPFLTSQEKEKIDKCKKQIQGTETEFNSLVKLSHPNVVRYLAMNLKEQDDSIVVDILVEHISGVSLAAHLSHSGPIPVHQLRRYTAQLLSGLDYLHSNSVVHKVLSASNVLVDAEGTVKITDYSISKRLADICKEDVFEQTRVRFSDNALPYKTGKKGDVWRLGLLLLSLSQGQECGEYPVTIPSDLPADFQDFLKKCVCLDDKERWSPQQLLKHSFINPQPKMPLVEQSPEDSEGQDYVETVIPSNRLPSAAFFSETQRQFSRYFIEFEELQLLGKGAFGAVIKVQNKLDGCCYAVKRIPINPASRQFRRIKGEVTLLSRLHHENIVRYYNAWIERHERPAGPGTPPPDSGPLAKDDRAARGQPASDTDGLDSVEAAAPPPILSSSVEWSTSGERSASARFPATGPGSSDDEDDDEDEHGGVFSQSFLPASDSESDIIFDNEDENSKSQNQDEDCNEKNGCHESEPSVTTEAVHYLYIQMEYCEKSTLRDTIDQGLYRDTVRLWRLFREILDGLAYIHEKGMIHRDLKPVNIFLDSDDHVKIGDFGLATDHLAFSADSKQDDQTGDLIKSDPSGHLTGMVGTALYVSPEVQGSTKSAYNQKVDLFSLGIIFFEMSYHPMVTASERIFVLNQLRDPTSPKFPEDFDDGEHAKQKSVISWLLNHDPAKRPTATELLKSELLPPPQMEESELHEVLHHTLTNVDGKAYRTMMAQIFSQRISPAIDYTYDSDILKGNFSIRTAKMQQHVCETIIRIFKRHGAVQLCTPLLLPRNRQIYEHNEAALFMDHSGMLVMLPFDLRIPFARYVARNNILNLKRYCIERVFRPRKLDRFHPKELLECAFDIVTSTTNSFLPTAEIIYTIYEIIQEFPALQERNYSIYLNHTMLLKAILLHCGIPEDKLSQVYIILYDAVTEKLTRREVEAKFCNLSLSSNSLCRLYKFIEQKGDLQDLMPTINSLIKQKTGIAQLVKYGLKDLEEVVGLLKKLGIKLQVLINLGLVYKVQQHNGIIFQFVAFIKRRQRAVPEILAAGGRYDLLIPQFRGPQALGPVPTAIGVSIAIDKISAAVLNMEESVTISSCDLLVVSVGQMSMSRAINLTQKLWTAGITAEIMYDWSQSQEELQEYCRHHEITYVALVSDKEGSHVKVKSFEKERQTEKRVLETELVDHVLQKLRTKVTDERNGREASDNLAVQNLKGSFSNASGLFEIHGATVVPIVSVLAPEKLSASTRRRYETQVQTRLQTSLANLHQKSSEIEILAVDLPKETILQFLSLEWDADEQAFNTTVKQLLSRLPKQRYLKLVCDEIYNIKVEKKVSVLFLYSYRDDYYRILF

Target: GCN2 (Homo sapiens, UniProt Q9P2K8)
Assay: GCN2 enzymatic endpoint assay: phosphorylation of GFP-eIF2α measured by TR-FRET (Lanthascreen)
Conditions: read-out: GCN2 activity, GCN2 biochemical IC50, 4 nM GCN2, 2 μM ATP, 80 nM GFP-eIF2α, 90 min RT
Protocol: The Enzymatic assay was run as an endpoint assay to quantify the activity of the serine/threonine GCN2 kinase by way of measuring phosphorylation of its natural substrate, eiF2α.
The enzymatic reaction was initiated by incubating with 2 μM ATP and 80 nM of GFP labeled eiF2a substrate at room temperature and then stopped after 90 minutes with EDTA. The amount of phosphorylated eIF2α is determined by TR-FRET (Lanthascreen). A terbium labeled antibody associates with the phosphorylated substrate resulting in an increased TR-FRET value. Activity was calculated as the ratio of the acceptor (fluorescein) signal at 520 nm wavelength to the donor (terbium) signal 495 nm. The amount of antibody that is bound to the tracer is directly proportional to the amount of phosphorylated substrate present, and in this manner, kinase activity can be detected and measured by an increase in the TR-FRET value.
Compound addition by D300
5 μL enzyme solution in assay buffer
5 μL substrate/ATP mixture in assay buffer
5 μL stop/detection mix in antibody dilution buffer

SMILES | IC50 (tested form: TFA) | IC50
CNC(=O)[C@]1(C)CC[C@@H](Nc2ncc3c(Br)nn(-c4ccc5c(c4)CCC(=O)N5C)c3n2)C1 | 25 to 200 nM | 
CNC(=O)[C@]1(C)CC[C@@H](Nc2ncc3c(Br)nn(-c4ccc5c(c4)OCC(=O)N5C)c3n2)C1 |  | 25 to 200 nM

Read-outs that look alike come from different tables or passages of the source.
